Source: ChEMBL document CHEMBL3621128, “Synthesis and biological evaluation of 2-alkyl-2-methoxymethyl-salvinorin ethers as selective κ-opioid receptor agonists” (2015)

Amino acid sequences for entries named in this document (tags omitted). A change or cut given only in a name is not applied to a line headed by its entry.
UniProt P41145: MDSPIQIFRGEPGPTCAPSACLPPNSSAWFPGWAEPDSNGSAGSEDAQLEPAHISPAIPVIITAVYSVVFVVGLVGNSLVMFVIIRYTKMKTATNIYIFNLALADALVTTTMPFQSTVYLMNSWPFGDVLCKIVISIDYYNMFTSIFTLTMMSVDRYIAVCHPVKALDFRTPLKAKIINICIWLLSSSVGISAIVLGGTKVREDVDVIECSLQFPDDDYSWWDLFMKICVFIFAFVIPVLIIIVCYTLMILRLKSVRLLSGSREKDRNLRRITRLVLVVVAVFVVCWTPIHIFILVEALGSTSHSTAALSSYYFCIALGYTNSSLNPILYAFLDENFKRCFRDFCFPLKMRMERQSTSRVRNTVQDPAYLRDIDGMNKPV
UniProt P33535, whole entry, looked up: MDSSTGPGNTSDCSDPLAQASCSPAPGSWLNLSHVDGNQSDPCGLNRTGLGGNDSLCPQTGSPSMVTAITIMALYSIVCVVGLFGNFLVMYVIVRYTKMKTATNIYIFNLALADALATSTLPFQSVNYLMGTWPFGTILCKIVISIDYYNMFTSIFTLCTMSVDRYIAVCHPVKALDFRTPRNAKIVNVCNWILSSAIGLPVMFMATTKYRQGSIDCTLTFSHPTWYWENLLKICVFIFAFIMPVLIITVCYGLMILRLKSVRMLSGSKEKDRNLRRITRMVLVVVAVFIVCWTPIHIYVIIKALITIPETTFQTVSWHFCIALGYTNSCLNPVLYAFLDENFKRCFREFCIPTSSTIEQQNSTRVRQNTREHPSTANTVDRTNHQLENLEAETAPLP
UniProt P32300, whole entry, looked up: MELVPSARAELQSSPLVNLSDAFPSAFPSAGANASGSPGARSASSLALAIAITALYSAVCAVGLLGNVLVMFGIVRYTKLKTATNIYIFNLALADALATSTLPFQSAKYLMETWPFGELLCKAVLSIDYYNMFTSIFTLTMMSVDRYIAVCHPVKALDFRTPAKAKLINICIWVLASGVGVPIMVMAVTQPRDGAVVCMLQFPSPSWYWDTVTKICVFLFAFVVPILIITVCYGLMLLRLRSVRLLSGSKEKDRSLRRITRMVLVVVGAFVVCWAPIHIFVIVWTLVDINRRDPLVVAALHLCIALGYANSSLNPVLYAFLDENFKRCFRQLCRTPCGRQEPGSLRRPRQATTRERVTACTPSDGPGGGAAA

Assays:
[1] = target: Kappa-type opioid receptor (Homo sapiens) (UniProt P41145); test: Agonist activity at human kappa opioid receptor expressed in CHO cell membranes assessed as stimulation of [35S]GTPgammaS binding relative to U50,488H
[2] = target: Mu-type opioid receptor (Rattus norvegicus) (UniProt P33535); test: Displacement of [3H]diprenorphine from rat mu opioid receptor expressed in CHO cell membranes Displacement of [3H]diprenorphine from human kappa opioid receptor expressed in CHO cell membranes at 3 uM
[3] = target: Delta-type opioid receptor (Mus musculus) (UniProt P32300); test: Displacement of [3H]diprenorphine from FLAG-tagged mouse delta opioid receptor expressed in CHO cell membranes Displacement of [3H]diprenorphine from human kappa opioid receptor expressed in CHO cell membranes at 3 uM
[4] = target: Kappa-type opioid receptor (Homo sapiens) (UniProt P41145); test: Displacement of [3H]diprenorphine from human kappa opioid receptor expressed in CHO cell membranes at 3 uM

Compound: COC(=O)[C@@H]1C[C@H](O)C(=O)[C@H]2[C@@]1(C)CC[C@H]1C(=O)O[C@H](c3ccoc3)C[C@]21C
- Emax [1]: 115%
- inhibition [2]: > 50%
- inhibition [3]: > 50%
- inhibition [4]: > 50%

Compound: COC[C@@]1(CCOCCI)C[C@@H](C(=O)OC)[C@]2(C)CC[C@@H]3C(=O)O[C@H](c4ccoc4)C[C@]3(C)[C@H]2C1=O
- inhibition [4]: > 50%

Compound: COC[C@@]1(C)C[C@@H](C(=O)OC)[C@]2(C)CC[C@@H]3C(=O)O[C@H](c4ccoc4)C[C@]3(C)[C@H]2C1=O
- inhibition [3]: > 50%

Compound: COC[C@@]1(C)C[C@@H](C(=O)OC)[C@]2(C)CC[C@H]3C(=O)O[C@H](c4ccoc4)C[C@]3(C)[C@H]2C1=O
- inhibition [3]: > 50%

Compound: COC[C@@]1(CCOCCI)C[C@@H](C(=O)OC)[C@]2(C)CC[C@H]3C(=O)O[C@H](c4ccoc4)C[C@]3(C)[C@H]2C1=O
- inhibition [4]: > 50%

Compound: COC[C@@]1(CCCCCI)C[C@@H](C(=O)OC)[C@]2(C)CC[C@@H]3C(=O)O[C@H](c4ccoc4)C[C@]3(C)[C@H]2C1=O
- inhibition [3]: > 50%

Compound: COC(=O)[C@@H]1C[C@H](OC(C)=O)C(=O)[C@H]2[C@@]1(C)CC[C@H]1C(=O)O[C@H](c3ccoc3)C[C@]21C
- inhibition [2]: > 50%
- inhibition [3]: > 50%

Compound: COC[C@@]1(CCCCCI)C[C@@H](C(=O)OC)[C@]2(C)CC[C@H]3C(=O)O[C@H](c4ccoc4)C[C@]3(C)[C@H]2C1=O
- inhibition [3]: > 50%
